Chains of the proteins cited; added tags and fusions are not shown.
UniProt P25099, whole entry: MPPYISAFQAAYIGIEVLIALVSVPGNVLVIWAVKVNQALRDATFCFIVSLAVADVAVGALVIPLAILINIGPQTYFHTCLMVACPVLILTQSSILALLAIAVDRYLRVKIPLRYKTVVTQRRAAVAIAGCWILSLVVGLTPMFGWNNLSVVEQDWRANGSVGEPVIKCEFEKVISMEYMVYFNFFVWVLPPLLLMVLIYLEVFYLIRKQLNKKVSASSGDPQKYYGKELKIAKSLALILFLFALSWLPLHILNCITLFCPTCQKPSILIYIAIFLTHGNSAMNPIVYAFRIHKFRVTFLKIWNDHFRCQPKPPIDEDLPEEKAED

In ChEMBL document CHEMBL1123072, “1,3-Dialkyl-8-(p-sulfophenyl)xanthines: potent water-soluble antagonists for A1- and A2-adenosine receptors” (J Med Chem, 1985):

Biological target: Adenosine receptor A1 (Rattus norvegicus, UniProt P25099)
Assay: Antagonism of binding of 1 nM [3H]cyclohexyladenosine to adenosine A1 receptors on rat cortical membranes
Format: cell membranes, Membrane

`Cn1c(=O)c2[nH]c(-c3ccc(C(=O)O)cc3)nc2n(C)c1=O` showed a Ki of 3 µM.
